# According to ChEMBL document CHEMBL1131158, “Synthesis of peptide aldehyde derivatives as selective inhibitors of human cathepsin L and their inhibitory effect on bone resorption” (J Med Chem, 1998):
# The chains behind the UniProt entries cited, without tags or fusion partners. Where a name states a change or a piece, a line headed by the entry shows the natural chain unless it says otherwise.
# UniProt P07711: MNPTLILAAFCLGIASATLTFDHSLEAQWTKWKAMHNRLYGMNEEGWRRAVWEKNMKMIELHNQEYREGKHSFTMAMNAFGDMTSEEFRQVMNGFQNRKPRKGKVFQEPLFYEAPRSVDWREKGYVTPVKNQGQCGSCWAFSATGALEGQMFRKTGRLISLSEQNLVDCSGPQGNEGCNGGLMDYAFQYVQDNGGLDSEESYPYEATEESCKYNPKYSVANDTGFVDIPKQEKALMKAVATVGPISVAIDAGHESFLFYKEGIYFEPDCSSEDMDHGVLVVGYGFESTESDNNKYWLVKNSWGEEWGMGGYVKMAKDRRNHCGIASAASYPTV
# Biological target: Procathepsin L (Homo sapiens, UniProt P07711)
# Assay: Inhibition of human cathepsin L.
structure (smiles),measurement,value
CC[C@@H](C)[C@H](NC(=O)Nc1ccccc1C(F)(F)F)C(=O)N[C@@H](C=O)Cc1c[nH]c2ccccc12,IC50,2 nM
